The text below walks through data of US20190038714A1, “ANTI-INFLAMMATORY COMPOSITION COMPRISING CLAVASPIRIN PEPTIDE ANALOGUE AS EFFECTIVE INGREDIENT” (INDUSTRY-ACADEMIC COOPERATION FOUNDATION, CHOSUN UNIVERSITY, priority 2015, published 2019).

Molecules are shown by their SMILES. Converted amounts (≈) assume the structure as drawn.

One may read the MIC as the lowest concentration that inhibits growth of the organism.

The test relates to S. aureus. To be noted: 24 hours at 37° C.

Turning to `CC[C@H](C)[C@H](NC(=O)CN)C(=O)NCC(=O)N[C@@H](C)C(=O)N[C@H](C(=O)N[C@@H](CC(C)C)C(=O)N[C@@H](CCCCN)C(=O)N[C@H](C(=O)N[C@@H](CC(C)C)C(=O)N[C@H](C(=O)N[C@H](C(=O)NCC(=O)N[C@@H](CC(C)C)C(=O)N1CCC[C@H]1C(=O)N[C@@H](C)C(=O)N[C@@H](CC(C)C)C(=O)N[C@H](C(=O)N[C@@H](CO)C(=O)N[C@@H](Cc1c[nH]c2ccccc12)C(=O)N[C@H](C(=O)N[C@@H](CCCCN)C(=O)N[C@@H](CCCNC(=N)N)C(=O)N[C@@H](CCCCN)C(=O)N[C@@H](CCCNC(=N)N)C(=O)N[C@@H](CCC(N)=O)C(=O)N[C@@H](CCC(N)=O)C(N)=O)[C@@H](C)CC)[C@@H](C)CC)[C@@H](C)O)[C@@H](C)O)C(C)C)C(C)C` [Melittin, melittin], the MIC was found to be 2 µM (≈ 5.69 µg/mL). This counts as single-digit micromolar.
